Patent US11878972B2, “Treatment of neurological disorders” (TORQUR AG, priority 2016, dated 2024)

Biological target: T1, N-terminally GST-tagged mTOR (truncated version: amino acids 1360-2549) (Homo sapiens, UniProt P42345)
T1 construct: truncated version: amino acids 1360-2549; purchased Life Technologies PR8683B
Test: In vitro mTOR binding assay (LanthaScreen TR-FRET)

SMILES: Nc1cc(C(F)F)c(-c2nc(N3CCOCC3)nc(N3CCOCC3)n2)cn1 [Compound 1, 4-(difluoromethyl)-5-(4,6-dimorpholino-1,3,5-triazin-2-yl)pyridin-2-amine]
- IC50: 8 nM
